SMILES strings stand for the structures. Only a part is listed here, and it is no random draw. Active and inactive are the calls of the source. Rule as the data show it: active = inhibition above about 40%.

Protein sequences, listed by entry. Tags and fused reporters are not part of them.
UniProt Q07817, whole entry, looked up: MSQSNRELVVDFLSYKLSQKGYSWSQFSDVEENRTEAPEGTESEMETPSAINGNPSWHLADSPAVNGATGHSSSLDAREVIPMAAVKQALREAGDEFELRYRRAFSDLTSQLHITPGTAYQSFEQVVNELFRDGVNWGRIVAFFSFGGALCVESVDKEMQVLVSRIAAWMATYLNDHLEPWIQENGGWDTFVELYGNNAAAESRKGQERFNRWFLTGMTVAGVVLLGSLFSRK

The assay deals with Bcl-2-like protein 1 (Homo sapiens) (UniProt Q07817). Description: inhibitors of Bim-Bcl-XL binding, primary screen, biochemical, multiplexed, bead flow cytometry, human Bcl-XL (AID 1007). The note with it: Bim peptide-Bcl-XL binding, fluorescence, at 10 µM, stronger effect = higher value.
Regarding `COc1ccc(C2=NCC(CBr)S2)cc1` (centres undefined), the inhibition is inactive: -1%.

Regarding `O=[N+]([O-])c1cccc2n[nH]nc12`, the inhibition is inactive: -8%.

On to `CC(=O)N1C2C3N(C(C)=O)C1C1N(C(C)=O)C(C(N1C(C)=O)N3C(C)=O)N2C(C)=O`, for which the inhibition is inactive: 0%.

`Cc1ccc(NP(=O)(Oc2ccccc2)Oc2ccccc2)nc1`: the inhibition was inactive: 0%.

As for `CCc1nc2c(n1)c1c(non1O)c1c2no[n+]1[O-]`, the inhibition was inactive: 31%.

Turning to `O=[N+]([O-])c1cc([N+](=O)[O-])c(CCNc2ccccc2)c([N+](=O)[O-])c1`, the inhibition is inactive: 0%.

`CCN(/C(=N/P(=O)(N1CCOCC1)N1CCOCC1)N1CCOCC1)c1ccc(OC)cc1`: the inhibition is inactive: -1%.

As for `CC(C)=N/N=C(\N)N[N+](=O)[O-]`, the inhibition is inactive: -7%.

`CN(C)C(=O)OCCc1n(C)cc[n+]1C`: the inhibition was inactive: -10%.

On to `CC1CCN(C(=O)Oc2c(Cl)cc(Cl)c3cccnc23)CC1`, for which the inhibition was inactive: -2%.

As for `O=[N+]([O-])c1ncn(CCn2ncnc2[N+](=O)[O-])n1`, the inhibition is inactive: -3%.

As to `CCOP(=O)(Nc1ccccc1)OCC`, the inhibition was inactive: 0%.

Regarding `Cc1cc(SC(NC(=O)c2ccc(F)cc2)C(Cl)(Cl)Cl)ncn1` (centres undefined), the inhibition is inactive: -15%.

For `CCN(N=Nc1nonc1N)c1nonc1N`, the inhibition is inactive: -6%.

Turning to `NC(=O)c1cc([N+](=O)[O-])cc([N+](=O)[O-])c1N`, the inhibition is inactive: -4%.

Turning to `Cc1ccc(N/C(=N/P(=O)(N2CCOCC2)N2CCOCC2)N2CCOCC2)cc1`, the inhibition was inactive: -1%.

As for `COc1ccccc1OP(=O)(Nc1ccc(C)cn1)Oc1ccccc1OC`, the inhibition was inactive: 3%.

Regarding `Clc1ccc(Cl)c(NC2=NCC(CBr)S2)c1` (centres undefined), the inhibition is inactive: -1%.

In the case of `CN1CCCC(OC(=O)C(c2ccccc2)c2ccccc2)C1` (centres undefined), the inhibition is inactive: -1%.

On to `CC(C)CC(=O)NC(Sc1ccc(Cl)cc1)C(Cl)(Cl)Cl` (centres undefined), for which the inhibition was inactive: -5%.

As to `Oc1ccccc1CNc1ccccn1`, the inhibition was inactive: -11%.

Take `Cc1c2non([O-])c-2c(C)[n+](=O)[n+]1[O-]`: the inhibition was inactive: 2%.

On to `O=C(NC(Sc1ccncn1)C(Cl)(Cl)Cl)c1ccccc1` (centres undefined), for which the inhibition was inactive: -4%.

On to `O=P1(Nc2nc3ccc(Cl)cc3s2)COc2ccccc2O1` (centres undefined), for which the inhibition was inactive: -3%.

Regarding `CCOc1ccc(C2=NCC(CBr)S2)cc1` (centres undefined), the inhibition is inactive: -2%.

With `CC(C)(C)C(=O)NC(Sc1ccccc1)C(Cl)(Cl)Cl` (centres undefined), the inhibition was inactive: -1%.

For the molecule `CC(=O)Nc1ccc(Oc2c([N+](=O)[O-])cc([N+](=O)[O-])cc2[N+](=O)[O-])cc1`, the inhibition is inactive: 2%.

Turning to `CCNC(=S)/N=C(\N)N[N+](=O)[O-]`, the inhibition was inactive: 0%.

With `O=C(NC1CCS(=O)(=O)C1)NP(=S)(Oc1ccccc1)Oc1ccccc1` (centres undefined), the inhibition was inactive: -5%.

Take `c1ccc(-c2nn[nH]n2)c(-c2nn[nH]n2)c1`: the inhibition was inactive: 9%.

With `CCOC(=O)NC(Sc1ccccc1)C(Cl)(Cl)Cl` (centres undefined), the inhibition was inactive: 0%.

`COC(=O)c1cc2c(s1)N=C(c1ccccc1)N(C)P2(=O)N1CCOCC1` (centres undefined): the inhibition was inactive: -1%.

As to `CC(=O)NC(SC(=S)N(CC(C)C)CC(C)C)C(Cl)(Cl)Cl` (centres undefined), the inhibition is inactive: -7%.

In the case of `Cc1ccc(OP(=O)(Nc2ccccn2)Oc2ccc(C)cc2)cc1`, the inhibition is inactive: 0%.

With `CCC(=O)N1C2C3N(C(=O)CC)C1C1N(C(=O)CC)C(C(N1C(=O)CC)N3C(=O)CC)N2C(=O)CC`, the inhibition was inactive: 9%.

As to `O=c1c2cc([N+](=O)[O-])ccc2[nH]c2c([N+](=O)[O-])cc([N+](=O)[O-])cc12`, the inhibition is inactive: -2%.

Take `O=P(Nc1ccccn1)(c1ccc(Br)cc1)c1ccc(Br)cc1`: the inhibition is inactive: -3%.

For `CC(=O)NC(SC(=S)N(C)C)C(Cl)(Cl)Cl` (centres undefined), the inhibition is inactive: -10%.

On to `C(Cc1nn[nH]n1)Cc1nn[nH]n1`, for which the inhibition is inactive: -5%.

On to `O=C(OC1CN2CCC1CC2)c1cccc(Cl)c1` (centres undefined), for which the inhibition is inactive: -2%.

As to `CC(C)C(=O)NC(Sc1ccccc1)C(Cl)(Cl)Cl` (centres undefined), the inhibition was inactive: -8%.

As to `O=P(Nc1nccs1)(c1ccccc1)c1ccccc1`, the inhibition was inactive: -2%.

As to `c1nnnn1CCn1cnnn1`, the inhibition was inactive: -3%.

Take `O=P1(Nc2ccccn2)COc2ccccc2OC1`: the inhibition was inactive: -1%.

On to `Clc1n[nH]nc1-c1nn[nH][15n]1`, for which the inhibition is inactive: -10%.

As for `CC(C)/C=N\N=C(\N)N[N+](=O)[O-]`, the inhibition is inactive: -6%.

Consider `CN(C(=O)Cc1ccc(Cl)c(Cl)c1)[C@@H]1CCCC[C@H]1N1CCCC1`, for which the inhibition is inactive: 1%.

As for `Cc1nn(-c2ccccc2)c2c1P(=O)(N1CCOCC1)N(C)C(c1ccccc1)=N2` (centres undefined), the inhibition was inactive: -3%.

`CC1CCC(C(C)C)C(OP(=O)(Nc2ccccn2)c2ccccc2)C1` (centres undefined): the inhibition is inactive: -1%.

On to `CN(C)C1(CNC(=O)c2ccc(S(C)(=O)=O)cc2)CCCCC1`, for which the inhibition was inactive: -2%.

Turning to `O=P1(Nc2ncccn2)COc2ccccc2OC1`, the inhibition is inactive: -8%.

Regarding `O=P1(Nc2ccc(Br)cn2)COc2ccccc2OC1`, the inhibition was inactive: -3%.

Turning to `Cc1ccc(OCC(=O)OC2CN3CCC2CC3)cc1` (centres undefined), the inhibition is inactive: 1%.

In the case of `CCOP1(=S)c2c(C)nn(CCC#N)c2N=C(c2ccccc2F)N1C` (centres undefined), the inhibition was inactive: -5%.

As for `O=P(Nc1nccs1)(c1ccccc1)c1nc2ccccc2s1` (centres undefined), the inhibition was inactive: -5%.

With `O=P(Nc1nccs1)(Oc1ccccc1)Oc1ccccc1`, the inhibition was inactive: -1%.

As to `O=[N+]([O-])c1ccc2c(c1)nnn2O`, the inhibition was inactive: 0%.

With `CCOP1(=S)c2c(C)nn(CCC#N)c2N=C(c2ccc(F)cc2)N1C` (centres undefined), the inhibition is inactive: -13%.

Turning to `COc1cc(C(=O)NCC2(N3CCOCC3)CCCCC2)cc(Cl)c1OC(C)C`, the inhibition is inactive: -2%.

Regarding `Cc1cccc(OCC(=O)OC2CN3CCC2CC3)c1` (centres undefined), the inhibition is inactive: 2%.

For the molecule `Cc1ccc(NCCc2c([N+](=O)[O-])cc([N+](=O)[O-])cc2[N+](=O)[O-])cc1`, the inhibition was inactive: -5%.

Regarding `COc1cc(C2NCCC3(OCCO3)C2(C)C)cc(OC)c1OC` (centres undefined), the inhibition is inactive: 1%.

For `CCOP(=O)(Nc1cccc2ccccc12)OCC`, the inhibition is inactive: -6%.

Turning to `O=C(OC1CN2CCC1CC2)C12CC3CC(CC(C3)C1)C2` (centres undefined), the inhibition was inactive: -5%.

For `Cc1cc(=O)[nH]c(N[N+](=O)[O-])n1`, the inhibition was inactive: -2%.

With `Cc1c2c(nc3ccccc13)SC(C(Cl)Cl)C2` (centres undefined), the inhibition was inactive: -7%.

As to `COc1ccc2nc(NP(=O)(c3ccccc3)c3ccccc3)sc2c1`, the inhibition was inactive: -2%.

Take `COc1ccc(N/C(=N/P(=O)(N2CCOCC2)N2CCOCC2)N2CCOCC2)cc1`: the inhibition was inactive: -3%.

`Cc1ccc2nc3c(c(C)c2c1)CC(C(Cl)Cl)S3` (centres undefined): the inhibition was inactive: -9%.

As for `ClCCSc1nnc(-c2cccnc2)o1`, the inhibition is inactive: -9%.

In the case of `CCN(CC)C(=S)SC(NC=O)C(Cl)(Cl)Cl` (centres undefined), the inhibition was inactive: -2%.

With `CC(C)NC(=O)NP(=O)(Oc1ccccc1)Oc1ccccc1`, the inhibition was inactive: -2%.

In the case of `O=[N+]([O-])c1cc([N+](=O)[O-])c(-c2ccn[nH]2)s1`, the inhibition was inactive: -8%.

Take `Cc1cc(SC(NC(=O)c2ccccc2)C(Cl)(Cl)Cl)nc(C(C)C)n1` (centres undefined): the inhibition is inactive: -10%.

Take `O=P(Nc1ccccn1)(c1cccc2ccccc12)c1cccc2ccccc12`: the inhibition is inactive: -5%.

As to `Cc1cc(SC(NC=O)C(Cl)(Cl)Cl)ncn1` (centres undefined), the inhibition was inactive: -8%.

Turning to `COP1(=S)c2c(C)nn(CCC#N)c2N=C(c2ccc(F)cc2)N1C` (centres undefined), the inhibition is inactive: -1%.

In the case of `O=C(COc1ccccc1)OC1CN2CCC1CC2` (centres undefined), the inhibition was inactive: 0%.

`CCC(C)N(CC(C)C)C(=S)SC(NC(C)=O)C(Cl)(Cl)Cl` (centres undefined): the inhibition is inactive: -2%.

For the origin of these results see PubChem BioAssay AID1007 (NMMLSC, 2008).
